Target: T1, mADAM-10 or hADAM-10 (UniProt O14672)
T1 sequence (O14672 1-748): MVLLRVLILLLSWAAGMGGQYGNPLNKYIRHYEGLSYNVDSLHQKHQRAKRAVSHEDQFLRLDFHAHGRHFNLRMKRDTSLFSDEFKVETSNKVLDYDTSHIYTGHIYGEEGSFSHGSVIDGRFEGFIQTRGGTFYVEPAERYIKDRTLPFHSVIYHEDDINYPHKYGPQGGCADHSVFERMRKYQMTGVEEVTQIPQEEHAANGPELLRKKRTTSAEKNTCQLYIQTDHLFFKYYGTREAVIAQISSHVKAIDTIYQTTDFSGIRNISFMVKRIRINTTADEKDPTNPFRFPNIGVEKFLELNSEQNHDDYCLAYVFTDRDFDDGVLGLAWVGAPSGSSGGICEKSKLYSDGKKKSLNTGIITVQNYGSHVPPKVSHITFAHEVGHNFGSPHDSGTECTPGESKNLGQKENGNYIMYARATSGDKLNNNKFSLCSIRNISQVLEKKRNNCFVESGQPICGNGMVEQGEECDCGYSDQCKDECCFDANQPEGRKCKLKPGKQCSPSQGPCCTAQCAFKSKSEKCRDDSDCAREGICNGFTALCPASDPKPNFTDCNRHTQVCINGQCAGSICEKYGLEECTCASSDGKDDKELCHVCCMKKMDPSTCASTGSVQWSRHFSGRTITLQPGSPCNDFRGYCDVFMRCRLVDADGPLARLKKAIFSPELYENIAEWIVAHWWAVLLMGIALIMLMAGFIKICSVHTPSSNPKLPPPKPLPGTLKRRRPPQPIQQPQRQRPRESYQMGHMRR
Assay: ADAM-10 enzyme assay (fluorogenic peptide cleavage);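 further: fluorescence from cleavage of a quenched 10-residue DABCYL/EDANS peptide by 5 nM enzyme in HEPES pH 8.0 buffer, 16 hr at room temperature, compounds serially diluted 100 µM to 0.5 nM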
Assay type: biochemical

IC50: < 50 nM
SMILES: COCCOC(=O)N1CCN(S(=O)(=O)c2cc(F)c(Oc3ccc(Cl)cc3)c(F)c2)[C@@H](C(=O)NO)C1 [Entry 15]
